Assay results from PubChem BioAssay (NCI).
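1) Cells in 96-well plates. 2) Compound, 48 h, 5 concentrations. 3) Linear interpolation between surrounding doses. 4) Unreached endpoint = highest concentration. At the GI50, growth is halved. TGI: concentration producing complete growth inhibition.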

Key:
Test in all cases: inhibition of tumour cell growth, NCI panel, 48 h
NCI-H23 lung = tested on: NCI-H23 lung
LOX IMVI melanoma = tested on: LOX IMVI melanoma
UO-31 renal = tested on: UO-31 renal
A549 NSCLC = tested on: A549 NSCLC
UACC-62 melanoma = tested on: UACC-62 melanoma
HCT-116 colon = tested on: HCT-116 colon
CAKI-1 renal = tested on: CAKI-1 renal
M14 melanoma = tested on: M14 melanoma
BT-549 breast = tested on: BT-549 breast
MDA-MB-231 breast = tested on: MDA-MB-231 breast
SK-MEL-28 melanoma = tested on: SK-MEL-28 melanoma
NCI-H322M lung = tested on: NCI-H322M lung
SK-MEL-2 melanoma = tested on: SK-MEL-2 melanoma
MDA-MB-435 = tested on: MDA-MB-435
MCF7 breast = tested on: MCF7 breast
SW-620 colon = tested on: SW-620 colon
KM12 colon = tested on: KM12 colon
HCT-15 colon = tested on: HCT-15 colon
NCI-H226 lung = tested on: NCI-H226 lung
RPMI-8226 leukemia = tested on: RPMI-8226 leukemia
MALME-3M melanoma = tested on: MALME-3M melanoma
786-0 renal = tested on: 786-0 renal
SR leukemia = tested on: SR leukemia
MOLT-4 leukemia = tested on: MOLT-4 leukemia
OVCAR-3 ovarian = tested on: OVCAR-3 ovarian
SNB-19 CNS = tested on: SNB-19 CNS
T-47D breast = tested on: T-47D breast
PC-3 prostate = tested on: PC-3 prostate
U251 CNS = tested on: U251 CNS
OVCAR-4 ovarian = tested on: OVCAR-4 ovarian
HCC-2998 colon = tested on: HCC-2998 colon
EKVX NSCLC = tested on: EKVX NSCLC
DU-145 prostate = tested on: DU-145 prostate
IGROV1 ovarian = tested on: IGROV1 ovarian
SF-268 CNS = tested on: SF-268 CNS
HT29 colon = tested on: HT29 colon
TK-10 renal = tested on: TK-10 renal
OVCAR-5 ovarian = tested on: OVCAR-5 ovarian
SF-539 CNS = tested on: SF-539 CNS
UACC-257 melanoma = tested on: UACC-257 melanoma
NCI/ADR-RES ovarian = tested on: NCI/ADR-RES ovarian
ACHN renal = tested on: ACHN renal
NCI-H460 lung = tested on: NCI-H460 lung
SF-295 CNS = tested on: SF-295 CNS
K-562 leukemia = tested on: K-562 leukemia
SK-OV-3 ovarian = tested on: SK-OV-3 ovarian
COLO 205 colon = tested on: COLO 205 colon
OVCAR-8 ovarian = tested on: OVCAR-8 ovarian

SMILES: CCP1(=S)OC(C)CCN1C(C)C (stereo unspecified)
- GI50 (NCI-H23 lung): 80.9 µM
- TGI (NCI-H23 lung): > 100 µM
- GI50 (LOX IMVI melanoma): 33.8 µM
- TGI (LOX IMVI melanoma): > 100 µM
- GI50 (UO-31 renal): 96.6 µM
- TGI (UO-31 renal): > 100 µM
- GI50 (A549 NSCLC): 37.2 µM
- TGI (A549 NSCLC): > 100 µM
- GI50 (UACC-62 melanoma): 17.4 µM
- TGI (UACC-62 melanoma): 42.2 µM
- GI50 (HCT-116 colon): 36.2 µM
- TGI (HCT-116 colon): > 100 µM
- GI50 (CAKI-1 renal): 64.6 µM
- TGI (CAKI-1 renal): > 100 µM
- GI50 (M14 melanoma): 61.4 µM
- TGI (M14 melanoma): > 100 µM
- GI50 (BT-549 breast): > 100 µM
- TGI (BT-549 breast): > 100 µM
- GI50 (MDA-MB-231 breast): 76.8 µM
- TGI (MDA-MB-231 breast): > 100 µM
- GI50 (SK-MEL-28 melanoma): 5.03 µM
- TGI (SK-MEL-28 melanoma): 18.6 µM
- GI50 (NCI-H322M lung): > 100 µM
- TGI (NCI-H322M lung): > 100 µM
- GI50 (SK-MEL-2 melanoma): 25.9 µM
- TGI (SK-MEL-2 melanoma): 55.4 µM
- GI50 (MDA-MB-435): 42.1 µM
- TGI (MDA-MB-435): > 100 µM
- GI50 (MCF7 breast): 22.9 µM
- TGI (MCF7 breast): 57.3 µM
- GI50 (SW-620 colon): 12.7 µM
- TGI (SW-620 colon): 63.2 µM
- GI50 (KM12 colon): 30.7 µM
- TGI (KM12 colon): > 100 µM
- GI50 (HCT-15 colon): 66.7 µM
- TGI (HCT-15 colon): > 100 µM
- GI50 (NCI-H226 lung): > 100 µM
- TGI (NCI-H226 lung): > 100 µM
- GI50 (RPMI-8226 leukemia): 30.6 µM
- TGI (RPMI-8226 leukemia): 68.5 µM
- GI50 (MALME-3M melanoma): 59.9 µM
- TGI (MALME-3M melanoma): > 100 µM
- GI50 (786-0 renal): 62.6 µM
- TGI (786-0 renal): > 100 µM
- GI50 (SR leukemia): 21.4 µM
- TGI (SR leukemia): 49.4 µM
- GI50 (MOLT-4 leukemia): 18.8 µM
- TGI (MOLT-4 leukemia): 43.5 µM
- GI50 (OVCAR-3 ovarian): 32.9 µM
- TGI (OVCAR-3 ovarian): > 100 µM
- GI50 (SNB-19 CNS): 87 µM
- TGI (SNB-19 CNS): > 100 µM
- GI50 (T-47D breast): 23.4 µM
- TGI (T-47D breast): 63.9 µM
- GI50 (PC-3 prostate): 28.4 µM
- TGI (PC-3 prostate): > 100 µM
- GI50 (U251 CNS): 43.7 µM
- TGI (U251 CNS): > 100 µM
- GI50 (OVCAR-4 ovarian): 77.9 µM
- TGI (OVCAR-4 ovarian): > 100 µM
- GI50 (HCC-2998 colon): 33.5 µM
- TGI (HCC-2998 colon): > 100 µM
- GI50 (EKVX NSCLC): 65.4 µM
- TGI (EKVX NSCLC): > 100 µM
- GI50 (DU-145 prostate): 43.4 µM
- TGI (DU-145 prostate): > 100 µM
- GI50 (IGROV1 ovarian): > 100 µM
- TGI (IGROV1 ovarian): > 100 µM
- GI50 (SF-268 CNS): 73.7 µM
- TGI (SF-268 CNS): > 100 µM
- GI50 (HT29 colon): 40.9 µM
- TGI (HT29 colon): > 100 µM
- GI50 (TK-10 renal): 66.5 µM
- TGI (TK-10 renal): > 100 µM
- GI50 (OVCAR-5 ovarian): 78.7 µM
- TGI (OVCAR-5 ovarian): > 100 µM
- GI50 (SF-539 CNS): > 100 µM
- TGI (SF-539 CNS): > 100 µM
- GI50 (UACC-257 melanoma): 23.1 µM
- TGI (UACC-257 melanoma): > 100 µM
- GI50 (NCI/ADR-RES ovarian): > 100 µM
- TGI (NCI/ADR-RES ovarian): > 100 µM
- GI50 (ACHN renal): 7.47 µM
- TGI (ACHN renal): > 100 µM
- GI50 (NCI-H460 lung): 65.1 µM
- TGI (NCI-H460 lung): > 100 µM
- GI50 (SF-295 CNS): 28.9 µM
- TGI (SF-295 CNS): 70.2 µM
- GI50 (K-562 leukemia): 32.6 µM
- TGI (K-562 leukemia): > 100 µM
- GI50 (SK-OV-3 ovarian): > 100 µM
- TGI (SK-OV-3 ovarian): > 100 µM
- GI50 (COLO 205 colon): 88.3 µM
- TGI (COLO 205 colon): > 100 µM
- GI50 (OVCAR-8 ovarian): 89.6 µM
- TGI (OVCAR-8 ovarian): > 100 µM
